Compound activity from PubChem.
Only some compounds are listed: those with a hit (about 0.46% of all), similar ones and a draw of the others.
HCMV UL50-53 inh = disrupts HCMV UL50-UL53 complex binding; inhibition, % (no concentration beside the values); HTRF UL50-UL53 interaction, normalized percent inhibition; hit rate 0.15% among 190,000; in the data active = inhibition above about 27%, passing the limit was not always enough
GIV Gai3 FP = inhibitors of GIV GBA-motif binding to rat Galpha-i3. 210,000 tested, 0.42% active. percent of control (FP), % (concentration not given with the values). AID 1224905. Galpha-i3/FITC-GIV peptide fluorescence polarization, 90 min; active compounds read low; scaled: aluminum fluoride 0%, vehicle 100%;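 active = replicate mean at 85% of control or lower, very high polarization wells dropped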;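 note: wells of about 15 µL received 100 nL stock; the first replicate is given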
GIV Gai FP conf = confirmation of inhibitors of GIV binding to rat Galpha-i3. AID 1259350. FITC-GIV peptide binding to Galphai3, fluorescence polarization; hits give low values. hit rate 38% among 580. fluorescence polarization, mP at 100 µM. shares compounds with GIV Gai3 FP;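 active = inhibition score of 15 or more, meaning 100 minus mean polarization as percent of control over three replicates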;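 also: lower mP means peptide displaced from Galphai3 so more inhibition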
GIV Gai AS conf = confirmation of inhibitors of GIV binding to human Galpha-i3; AlphaScreen counts at 100 µM; hit rate 39% among 580; AlphaScreen Galphai3-GIV binding, purified proteins, 90 min; hits give low values; AID 1259351; shares compounds with GIV Gai3 FP;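 active = inhibition score at or above a set limit, where the score is 100 minus the three-replicate mean percent of control signal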
Numbers stand for hits; i = inactive; nt = not tested or not shown.

SMILES	HCMV UL50-53 inh	GIV Gai3 FP	GIV Gai FP conf	GIV Gai AS conf
Cc1cc(N2CCOCC2)n2nc(C(F)(F)F)c(-c3ccc(Cl)cc3)c2n1	i	i	i	i
Cc1cc(N2CCOCC2)n2nc(C)c(-c3ccc(F)cc3)c2n1	i	i	nt	nt
CCC(C)NC(=O)Cn1c(=O)/c(=C\c2ccc(F)cc2)s/c1=C\C(=O)c1ccco1 (stereo not given)	i	nt	nt	nt
O=C1CCC2(C(=O)O)c3[nH]c4ccccc4c3CCN12 (stereo not given)	i	nt	nt	nt
CCc1cccc2c(/C=C3/C(=O)N(C)c4ccccc43)cn(CC(=O)NC3CCCC3)c12	nt	80	34	i
CCN(CC)C(=O)Cn1cc(/C=C2/C(=O)N(C)c3ccccc32)c2ccccc21	nt	i	nt	nt
CC(=O)N1CC(C)=C(C#N)C1O (stereo not given)	i	73	48	19185
CC(=O)N1CN(C(C)=O)C(O)C1O (stereo not given)	i	i	nt	nt
O=C(CSc1c2c(nc3ccccc13)CCCC2)N1CCCc2ccccc21	nt	i	nt	nt
O=C1CSC(N=Nc2c(O)[nH]c3ccccc23)=N1	i	i	nt	nt
O=C1N=c2ccccc2=C1N=Nc1c(O)[nH]c2ccccc12	i	57	51	9884
COC(=O)c1[nH]c2sc3c(c2c1-n1cccc1)CCCC3	i	i	nt	nt
COc1ccccc1N1CCN(C(=O)Cn2c(=O)n3nc(-c4ccc(F)cc4)nc3c3ccccc32)CC1	nt	i	nt	nt
CC(C)N(C(=O)CSc1ncccc1C(=O)O)c1ccccc1	i	nt	nt	nt
Nc1c2c(nn1-c1ccccc1)CC(=O)NC2=O	71	60	47	31739
O=C1CN(c2ccccc2)C(=O)N1	nt	i	nt	nt
Cn1cnc2c(=O)oc3ccc(S(=O)(=O)NC4CCCC4)cc3c21	i	i	nt	nt
COc1ccc(OC)c(C2=NS(=O)(=O)N(C)C(C(=O)Nc3ccc(F)cc3F)=C2)c1	i	i	i	i
Cc1ccc(C2=NS(=O)(=O)N(C)C(C(=O)Nc3ccc(F)cc3F)=C2)cc1	i	i	nt	nt
CC(C)Nc1nc(NC(C)C)nc(Sc2nn(C)c(=S)s2)n1	nt	i	nt	nt
COc1ccc2nc(N(Cc3cccnc3)C(=O)Cc3ccccc3)sc2c1	nt	i	nt	nt
CCc1ccc2nc(N(Cc3cccnc3)C(=O)Cc3ccccc3)sc2c1	nt	37	i	i
C/C(=N\N=C(N)N)c1ccco1	i	nt	nt	nt
